In PMC8145572 (Viruses, 2021):

How the values were obtained:
Type in all cases: cell-based
[1] = system: Dengue virus serotype 2 (DENV2), strain New Guinea C; experiment: Antiviral evaluation; details: HUH-7 cells, MOI 0.01, AUC of viral burden over 3 days
[2] = system: Dengue virus serotype 2 (DENV2), strain New Guinea C; experiment: Combination drug assay UV-4B and IFN, DENV-infected HUH-7 cells, plaque assay; details: day 2, 100 IU/mL
[3] = system: Dengue virus serotype 2 (DENV2), strain New Guinea C; experiment: Combination drug assay UV-4B and IFN, DENV-infected SK-N-MC cells, plaque assay
[4] = system: Dengue virus serotype 2 (DENV2), strain New Guinea C; experiment: Antiviral evaluation; details: SK-N-MC cells, MOI 0.1, AUC of viral burden over 4 days
[5] = system: Dengue virus serotype 2 (DENV2), strain New Guinea C; experiment: Antiviral evaluation; details: HFF-1 cells, MOI 0.1, AUC of viral burden over 2 days

interferon-alpha [IFN]
EC50 [1]: 102.7 IU/mL | reduction of viral titers, monotherapy [2]: 2.5 log10 PFU/mL | lowering of peak viral titers, monotherapy ([3]; SK-N-MC cells, 100 IU/mL): 1.4 log10 PFU/mL | lowering of peak viral titers, monotherapy ([3]; SK-N-MC cells, 10,000 IU/mL): 2.5 log10 PFU/mL | EC50 [4]: 86.59 IU/mL | EC50 [5]: 163.1 IU/mL
